The values that follow come from US20220031668A1, “METHODS OF INHIBITING PROCOLLAGEN-LYSINE, 2-OXOGLUTARATE 5-DIOXYGENASE 2” (University of Kentucky Research Foundation, priority 2020, published 2022).

In this test the test system is MDA-MB-231 cells. As to the kind of experiment: 3D culture assay of cancer cell invasion. It counts as cell-based, human. As to the method: 3D culture assay is an established platform to study cancer cell invasion, and the ability of compounds to attenuate such cell invasion (Zhang 2015). […] The MDA-MB-231 cell line is an epithelial, human breast cancer cell line.
Briefly, to conduct the 3D culture assay, 12-well plates were coated with […], matrigel per well. After incubating the plates at 37° C. for 15 minutes, MDA-MB-231 cells were plated with about 300 cells per well. The plates were allowed to stand for 45 min in the 37° C. incubator to let the cells deposit into the matrigel. The cells were then covered with 10% matrigel, which contained test compounds. […]

Turning to `C[C@@H](O)[C@H]1C(=O)N2C(C(=O)OCOC(=O)C(C)(C)C)=C(SC3CN(C4=NCCS4)C3)[C@H](C)[C@H]12` [Tebipenem pivoxil], the “inhibitory activity on breast cancer progression (invasive growth) in 3D culture” value is “inhibitory activity”.
